# From article PMC5990611, “An in Vitro Assay of hERG K^+ Channel Potency for a New EGFR Inhibitor FHND004” (Frontiers in Pharmacology, 2018)
# Chains of the proteins cited; added tags and fusions are not shown.
# UniProt O35219, whole entry: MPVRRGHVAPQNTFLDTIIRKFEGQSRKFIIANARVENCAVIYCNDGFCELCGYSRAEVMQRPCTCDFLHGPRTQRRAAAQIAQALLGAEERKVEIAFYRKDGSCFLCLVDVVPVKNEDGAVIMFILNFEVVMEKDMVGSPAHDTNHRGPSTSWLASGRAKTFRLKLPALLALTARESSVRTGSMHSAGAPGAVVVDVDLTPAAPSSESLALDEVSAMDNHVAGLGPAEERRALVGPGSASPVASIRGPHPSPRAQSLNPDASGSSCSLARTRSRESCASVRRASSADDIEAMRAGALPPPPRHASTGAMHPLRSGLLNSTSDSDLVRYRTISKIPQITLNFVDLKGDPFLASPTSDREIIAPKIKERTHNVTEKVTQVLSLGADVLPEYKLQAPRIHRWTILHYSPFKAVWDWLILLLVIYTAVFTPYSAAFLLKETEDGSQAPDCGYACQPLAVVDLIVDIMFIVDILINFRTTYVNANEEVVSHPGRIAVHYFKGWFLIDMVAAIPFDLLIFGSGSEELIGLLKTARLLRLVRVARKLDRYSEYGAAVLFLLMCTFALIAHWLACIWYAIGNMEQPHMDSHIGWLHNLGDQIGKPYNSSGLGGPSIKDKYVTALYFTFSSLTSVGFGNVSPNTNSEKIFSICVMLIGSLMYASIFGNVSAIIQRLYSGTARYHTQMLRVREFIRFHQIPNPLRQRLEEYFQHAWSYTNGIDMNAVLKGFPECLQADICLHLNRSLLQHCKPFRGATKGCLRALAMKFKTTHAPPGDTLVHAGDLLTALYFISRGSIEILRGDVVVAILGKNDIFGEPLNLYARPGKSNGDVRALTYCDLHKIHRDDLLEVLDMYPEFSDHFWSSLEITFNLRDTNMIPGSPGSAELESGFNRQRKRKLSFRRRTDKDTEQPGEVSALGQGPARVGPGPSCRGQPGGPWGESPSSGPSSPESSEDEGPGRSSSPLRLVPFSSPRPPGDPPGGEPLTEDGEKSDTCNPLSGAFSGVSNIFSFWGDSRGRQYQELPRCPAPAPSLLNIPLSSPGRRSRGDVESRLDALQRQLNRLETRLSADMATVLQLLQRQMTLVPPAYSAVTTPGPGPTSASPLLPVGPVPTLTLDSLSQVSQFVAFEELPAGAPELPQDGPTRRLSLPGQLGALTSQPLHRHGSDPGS
# Tests used:
# [1] = target: S624A-hERG (Homo sapiens, UniProt Q12809, S624A); assay: Whole-cell patch clamp, S624A-hERG mutant; assay type: cell-based
# Procedure: (§1) Mutations of hERG channels (Y652A, F656C, S624A, and F557L) were constructed using the KFX-101 kit (Toyobo Co., Ltd., Japan) according to the manufacturer’s instructions. Each mutant was confirmed by sequencing and subsequently subcloned into the full-length cgi-EGFP vector. Plasmid vectors were then amplified in Escherichia coli DH5α and harvested for eukaryotic cell transfection as described above.
# (§2) Whole-cell patch clamp technique was employed to record IhERG at room temperature (22 ± 1°C) using an AXON 200B amplifier through a digitizer (DigiData 1440A, Molecular Devices, United States) controlled by pClamp (v10.0) software. Cells were superfused with bath solution containing (mmol/L): NaCl 140, KCl 5.4, MgCl2 1, HEPES 10, glucose 10, and CaCl2 1 (pH 7.4). The pipette solution contained (mmol/L): KCl 140, MgCl2 1, HEPES 10, K-ATP4, and EGTA 5 (pH 7.3). Borosilicate glass electrodes (World Precision Instruments Inc., United States) were pulled on a horizontal pipette puller (P-97, Sutter Instrument Co., United States) to resistances of 2–5 MΩ when filled with the pipette solution. The “pipette-to-bath” liquid junction potential calculated with this filling solution was about -2.7 mV. Because this value was small, no correction of membrane potential was made. […]
# [2] = target: IKr in HL-1 cells (Mus musculus, UniProt O35219); assay: Whole-cell patch clamp of IKr endogenously expressed in HL-1 cells
# Procedure: The cardiac murine HL-1 cell line, a kind gift from William Claycomb (Louisiana State University, New Orleans), was grown in 0.02% fibronectin (Sigma, United States) precoated flasks and maintained in complete Claycomb medium (Sigma, United States) supplemented with 10% fetal bovine serum (FBS; Sigma, United States), 2 mmol/L L-glutamine (Invitrogen, United States), 100 mmol/L norepinephrine (Sigma, United States), 100 U/mL of penicillin (TransGen, China), and 100 μg/mL of streptomycin (TransGen, China) at 37°C in humidified 5% CO2 and 95% air.
# Whole-cell patch clamp technique was employed to record IhERG at room temperature (22 ± 1°C) using an AXON 200B amplifier through a digitizer (DigiData 1440A, Molecular Devices, United States) controlled by pClamp (v10.0) software. Cells were superfused with bath solution containing (mmol/L): NaCl 140, KCl 5.4, MgCl2 1, HEPES 10, glucose 10, and CaCl2 1 (pH 7.4). The pipette solution contained (mmol/L): KCl 140, MgCl2 1, HEPES 10, K-ATP4, and EGTA 5 (pH 7.3). […] The “pipette-to-bath” liquid junction potential calculated with this filling solution was about -2.7 mV. […]
# (§3) Specific voltage pulse protocols are described in Section “Results” and figure legends. The voltage dependence of current activation was determined by fitting the normalized tail current (Itail) vs. test potential (mV) to a Boltzmann function expressed by Itail/Imax = 1/(1+exp[(V1/2-Vm)/k], where V1/2 is the voltage at which the current is half-activated and k is the slope factor. The time constants (tau) for inactivation (τinactivation) and recovery from inactivation (τrecovery) were obtained by fitting a single-exponential equation: y = A1 × exp(-x/t1)+y0, respectively, where t1 represents the time constants. The time constants for deactivation (τdeactivation) were obtained by fitting a double-exponential equation: y = A1 × exp(-x/t1)+A2 × exp(-x/t2)+y0, where t1 represents the slow time constant (τslow) and t2 represents the fast time constant (τfast), respectively. […]
# [3] = target: hERG K+ channels (WT) (Homo sapiens, UniProt Q12809); assay: Whole-cell patch clamp of IhERG in HEK293 cells expressing WT hERG; assay type: cell-based
# [4] = target: F557L-hERG (Homo sapiens, UniProt Q12809, F557L); assay: Whole-cell patch clamp, F557L-hERG mutant; assay type: cell-based
# Procedure: as §1
# (§4) Whole-cell patch clamp technique was employed to record IhERG at room temperature (22 ± 1°C) using an AXON 200B amplifier through a digitizer (DigiData 1440A, Molecular Devices, United States) controlled by pClamp (v10.0) software. Cells were superfused with bath solution containing (mmol/L): NaCl 140, KCl 5.4, MgCl2 1, HEPES 10, glucose 10, and CaCl2 1 (pH 7.4). The pipette solution contained (mmol/L): KCl 140, MgCl2 1, HEPES 10, K-ATP4, and EGTA 5 (pH 7.3). Borosilicate glass electrodes (World Precision Instruments Inc., United States) were pulled on a horizontal pipette puller (P-97, Sutter Instrument Co., United States) to resistances of 2–5 MΩ when filled with the pipette solution. The “pipette-to-bath” liquid junction potential calculated with this filling solution was about -2.7 mV. […]
# as §3
# [5] = In vivo pharmacokinetic assay in male SD rats; design: species or system rat; details: read-out: maximum serum concentration (Cmax), data not shown
# [6] = target: F656C-hERG (Homo sapiens, UniProt Q12809, F656C); assay: Whole-cell patch clamp, F656C-hERG mutant, high [K+]e; assay type: cell-based
# Procedure: as §1, §2
# [7] = target: Y652A-hERG (Homo sapiens, UniProt Q12809, Y652A); assay: Whole-cell patch clamp, Y652A-hERG mutant; assay type: cell-based
# Procedure: as §1, §4, §3
# [8] = target: WT/A422T-hERG (Homo sapiens, UniProt Q12809, A422T); assay: Whole-cell patch clamp, HEK293 cells co-expressing WT/A422T-hERG; assay type: cell-based
# Procedure: (§5) The cgi-EGFP-hERG, cgi-EGFP-A422T-hERG, and cgi-EGFP-H562P-hERG plasmids were kindly gifted by Dr. Nipavan Chiamvimonvat (University of California, Davis, CA, United States). Transfections were performed using Lipofectamine^TM 2000 according to manufacturer’s instructions (Invitrogen, United States). EGFP-positive cells were used for current recording at least 36 h after transfection.
# as §4, §3
# [9] = target: WT/H562P-hERG (Homo sapiens, UniProt Q12809, H562P); assay: Whole-cell patch clamp, HEK293 cells co-expressing WT/H562P-hERG; assay type: cell-based
# Procedure: as §5, §4, §3
compound,measurement,setting,value
C=CC(=O)Nc1cc(Nc2nccc(-c3cn4c5c(cccc35)CCC4)n2)c(OC)cc1N(C)CCN(C)C,slope factor (k) of concentration-response fit,[1]; S624A,2.86 ± 1.63
same,IC50,[1]; read-out: IC50 for block of S624A-hERG tail current,47.6 µM
same,fold greater IC50 than AZD9291,[2]; HL-1 IC50 vs AZD9291,13 fold
same,slope factor (k) of concentration-response fit,"[2]; HL-1 cells, IKr tail current",2.21 ± 0.67
same,IC50,"[2]; read-out: IC50 for block of IKr tail current, HL-1 cells",7.52 µM
same,incomplete (maximal) hERG block,[3],about 85%
same,onset of inhibitory effect on tail currents after drug application,[3]; 10 μM,1 min
same,time to steady-state response after drug application,[3]; 10 μM,5 min
same,effect on deactivation time constants,"[3]; 10 μM, P > 0.05",did not affect
same,effect on inactivation time constant,"[3]; 10 μM, P > 0.05",not affected
same,effect on steady-state activation,"[3]; 10 μM, P > 0.05",not affected
same,effect on steady-state inactivation,"[3]; 10 μM, P > 0.05",not affected
same,time constant of pulse duration-dependent decay of relative tail current (onset of block),"[3]; 10 μM, envelope of tails protocol",172.26 ± 9.67 ms
same,closed state block,"[3]; 10 μM, step to +80 mV",minimal closed state block
same,fold less inhibitory effect on hERG channels than AZD9291,"[3]; HEK293 cells, IC50 ratio",about 15 fold
same,slope factor (k) of concentration-response fit,"[3]; WT hERG, HEK293 cells",3.50
same,slope factor (k) of concentration-response fit,"[3]; WT hERG, high [K+]e (94 mM)",3.00
same,tail current recovered by washing out,[3]; after 10 μM drug application,88.40 ± 0.46%
same,half-activation voltage (V1/2) of steady-state activation,"[3]; after 10 μM, control 9.86 ± 0.54 mV",10.87 ± 1.46 mV and 10.87 mV
same,time constant of hERG channel activation,"[3]; envelope of tails protocol, +30 mV, 10 μM, Ctrl 294.42 ± 13.22 ms",261.48 ± 11.09 ms
same,margin between hERG IC50 and Cmax,[3]; hERG IC50 (HEK293) / rat Cmax,38.5 fold
same,IC50,"[3]; read-out: IC50 for block of WT-hERG inward tail current, WT hERG, high [K+]e (94 mM) bath solution",8.38 µM
same,slope factor (k) of concentration-response fit,[4]; F557L,3.00 ± 1.39
same,fold decrease in efficacy vs WT,"[4]; F557L, smallest of the order Y652A > S624A > F656C > F557L",2.3 fold
same,IC50,[4]; read-out: IC50 for block of F557L-hERG tail current,19.7 µM
same,Cmax,[5],220 nM
same,slope factor (k) of concentration-response fit,"[6]; F656C, high [K+]e (94 mM)",3.61
same,IC50,"[6]; read-out: IC50 for block of F656C-hERG inward tail current, high [K+]e (94 mM) bath solution",46.1 µM
same,slope factor (k) of concentration-response fit,[7]; Y652A,3.00 ± 1.87
same,fold decrease in efficacy vs WT,"[7]; Y652A, largest of the order Y652A > S624A > F656C > F557L",7.9 fold
same,IC50,[7]; read-out: IC50 for block of Y652A-hERG tail current,66.5 µM
same,slope factor (k) of concentration-response fit,[8]; WT/A422T-hERG,3.45
same,fold more potent inhibition vs WT hERG channels,[8]; WT/A422T-hERG vs WT,approximately 1.8 fold
same,IC50,"[8]; read-out: IC50 for block of WT/A422T-hERG tail current, HEK293 cells",4.82 µM
same,slope factor (k) of concentration-response fit,[9]; WT/H562P-hERG,2.55
same,fold more potent inhibition vs WT hERG channels,[9]; WT/H562P-hERG vs WT,3 fold
same,IC50,"[9]; read-out: IC50 for block of WT/H562P-hERG tail current, HEK293 cells",2.8 µM

# “And” between values parts separate entries of the source, which are not always exact repeats. Equal values may be shown once.
